In PMC13572498 one finds Kd and EC50 measured against MM1.S cells in the presence of iNKT data, which are given here for 1 substance.

By UniProt entry, the sequences of proteins in these tests, tags left out. Residues count along the entry.
UniProt Q02223, 1-54: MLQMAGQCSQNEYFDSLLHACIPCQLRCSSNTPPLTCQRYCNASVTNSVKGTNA

Assay [1] concerns the target soluble biotinylated BCMA (recombinant BCMA-biotin) (UniProt Q02223). As to the kind of experiment: SPR; Biacore S200; soluble biotinylated BCMA immobilised on Series S SA sensorchip (3500 RU); biNTe injected, single-cycle kinetics, 4-point series 0.1, 1, 10, 200 nM, 400 s injections, 400 s dissociation; PBS-P+.
Assay [2] shares this target.

A word on the Kd: it is the constant that tells how readily two partners part at equilibrium. “bivalent BCMA bispecific iNKT engager (homodimeric, bivalent IgG-scFv; anti-BCMA C11D5.3 IgG fused C-terminally to anti-TCRVβ11 C21 scFv) (bispecific antibody)”: in assay [1], the dissociation constant Kd was 23.4 nM. For the same substance, in assay [2], the EC50 measured against MM1.S cells in the presence of iNKT was 0.0024 nM.
